US6664280B2, “Antivesicant compounds and methods of making and using thereof” (dated 2003)
Where “and” joins values, the source holds several entries; their conditions need not be identical. Equal values may be shown once.

Assays:
[1] = system: HD-exposed mouse ear; assay: Mouse Ear Antivesicant Drug Screening Assay: edema, relative ear weight (REW); conditions: for % REW reduction: topical, mouse ear; for antivesicant activity (relative ear weight reduction) / protective efficacy (relative ear weight reduction): dose not given; for protective efficacy (relative ear weight reduction): applied 20 minutes after the HD exposure
[2] = system: HD-exposed mouse ear; assay: Mouse Ear Antivesicant Drug Screening Assay: histopathologic severity scores (SEB, EN, CEN); conditions: topical
[3] = total dose 0.6 mg, applied −15 minute (before HD exposure)
[4] = total dose 0.15 mg, applied +10 minute (after HD exposure)
[5] = total dose 0.15 mg, applied −15 minute (before HD exposure)
[6] = total dose 0.3 mg, applied +10 minute (after HD exposure)
[7] = total dose 0.3 mg, applied −15 minute (before HD exposure)
[8] = total dose 0.6 mg, applied +20 minute (after HD exposure)
[9] = total dose 1.2 mg, applied +10 minute (after HD exposure)
[10] = total dose 1.2 mg, applied −15 minute (before HD exposure)
[11] = total dose 2.4 mg, applied +10 minute (after HD exposure)
[12] = total dose 2.4 mg, applied −15 minute (before HD exposure)
[13] = total dose 0.6 mg, applied +10 minute (after HD exposure)
[14] = total dose 0.6 mg, applied +60 minute (after HD exposure)

SMILES: [O-][n+]1cc(Br)ccc1S
- % REW reduction [1, 3]: 15.61%

SMILES: [O-][n+]1ccccc1S
- % CEN reduction [2, 4]: 46.67%
- % EN reduction [2, 4]: 2.78%
- % SEB reduction [2, 4]: 25.00%
- % CEN reduction [2, 5]: 44.12%
- % EN reduction [2, 5]: 10.53%
- % SEB reduction [2, 5]: 75.00%
- % CEN reduction [2, 6]: 53.33%
- % EN reduction [2, 6]: −8.33%
- % SEB reduction [2, 6]: 100.00%
- % CEN reduction [2, 7]: 55.88%
- % EN reduction [2, 7]: 31.58%
- % SEB reduction [2, 7]: 75.00%
- % CEN reduction [2, 8]: 48.57%
- % EN reduction [2, 8]: 7.69%
- % SEB reduction [2, 8]: 77.78%
- % CEN reduction [2, 3]: 50.00% and 65.63%
- % SEB reduction [2, 3]: 50.00%
- % CEN reduction [2, 9]: 50.00%
- % EN reduction [2, 9]: 2.78%
- % SEB reduction [2, 9]: 50.00%
- % CEN reduction [2, 10]: 91.18%
- % EN reduction [2, 10]: 31.58%
- % SEB reduction [2, 10]: 75.00%
- % CEN reduction [2, 11]: 53.33%
- % EN reduction [2, 11]: −5.56%
- % SEB reduction [2, 11]: 0.00%
- % CEN reduction [2, 12]: 94.12%
- % EN reduction [2, 12]: 68.42%
- % SEB reduction [2, 12]: 100%
- antivesicant activity compared with analogs ([1]; ten minutes post-exposure assay): as active as the 6-methyl-analog, but less active than the 4-methyl-analog
- % REW reduction [1, 4]: 7.02%
- % REW reduction [1, 5]: 27.24%
- % REW reduction [1, 6]: 3.29%
- % REW reduction [1, 7]: 38.20%
- % REW reduction [1, 8]: 16.37%
- % REW reduction [1, 3]: 41.65% and 35.96%
- % REW reduction [1, 9]: 26.24%
- % REW reduction [1, 10]: 47.68%
- % REW reduction [1, 11]: 24.71%
- % REW reduction [1, 12]: 69.42%

SMILES: Cc1cc(C)[n+]([O-])c(S)c1
- % REW reduction [1, 3]: 36.85%

SMILES: Cc1cc[n+]([O-])c(S)c1
- % CEN reduction [2, 4]: 60.00%
- % EN reduction [2, 4]: 2.56%
- % SEB reduction [2, 4]: 57.14%
- % CEN reduction [2, 5]: 71.88%
- % EN reduction [2, 5]: 10.81%
- % SEB reduction [2, 5]: 0.00%
- % CEN reduction [2, 6]: 68.57%
- % EN reduction [2, 6]: 10.26%
- % SEB reduction [2, 6]: 57.14%
- % CEN reduction [2, 7]: 68.75%
- % EN reduction [2, 7]: 13.51%
- % SEB reduction [2, 7]: 60.00%
- % CEN reduction [2, 13]: 65.81% and 85.19% and 65.71%
- % CEN reduction [2, 8]: 28.21%
- % EN reduction [2, 8]: 2.50%
- % SEB reduction [2, 8]: 50.00%
- % CEN reduction [2, 3]: 93.75% and 71.88%
- % CEN reduction [2, 9]: 71.43%
- % EN reduction [2, 9]: 7.69%
- % SEB reduction [2, 9]: 71.43%
- % CEN reduction [2, 10]: 75.00%
- % EN reduction [2, 10]: 27.03%
- % SEB reduction [2, 10]: 60.00%
- % CEN reduction [2, 11]: 68.57%
- % EN reduction [2, 11]: 20.51%
- % SEB reduction [2, 11]: 85.71%
- % CEN reduction [2, 12]: 84.38%
- % EN reduction [2, 12]: 48.65%
- % SEB reduction [2, 12]: 80.00%
- antivesicant activity (relative ear weight reduction) ([1]; 10 minutes post-exposure): about 68%
- antivesicant activity (relative ear weight reduction) ([1]; 15 minutes pre-exposure): about 57%
- protective efficacy (relative ear weight reduction) [1]: about 11%
- % REW reduction [1, 4]: 34.01%
- % REW reduction [1, 5]: 25.37%
- % REW reduction [1, 6]: 41.93%
- % REW reduction [1, 7]: 38.95%
- % REW reduction [1, 8]: 10.64%
- % REW reduction [1, 3]: 57.05% and 57.20%
- % REW reduction [1, 9]: 30.99%
- % REW reduction [1, 10]: 48.70%
- % REW reduction [1, 11]: 30.40%
- % REW reduction [1, 12]: 69.11%

SMILES: Cc1cccc(S)[n+]1[O-]
- % CEN reduction [2, 4]: 17.86%
- % EN reduction [2, 4]: −8.57%
- % SEB reduction [2, 4]: 0.00%
- % CEN reduction [2, 5]: 41.18%
- % EN reduction [2, 5]: 7.89%
- % SEB reduction [2, 5]: −25.00%
- % CEN reduction [2, 6]: 32.14%
- % EN reduction [2, 6]: −5.71%
- % SEB reduction [2, 6]: 0.00%
- % CEN reduction [2, 7]: 52.94%
- % EN reduction [2, 7]: 5.26%
- % SEB reduction [2, 7]: −25.00%
- % SEB reduction [2, 13]: 50.00% and 61.43%
- % CEN reduction [2, 8]: 31.60%
- % EN reduction [2, 8]: 3.33%
- % SEB reduction [2, 8]: 87.14%
- % CEN reduction [2, 14]: 17.20%
- % EN reduction [2, 14]: 3.33%
- % SEB reduction [2, 14]: 74.29%
- % CEN reduction [2, 3]: 56.25% and 35.29%
- % CEN reduction [2, 9]: 17.86%
- % EN reduction [2, 9]: 2.86%
- % SEB reduction [2, 9]: 0.00%
- % CEN reduction [2, 10]: 67.65%
- % EN reduction [2, 10]: 0.00%
- % SEB reduction [2, 10]: 50.00%
- % CEN reduction [2, 11]: 57.14%
- % EN reduction [2, 11]: −5.71%
- % SEB reduction [2, 11]: 25.00%
- % CEN reduction [2, 12]: 64.71%
- % EN reduction [2, 12]: 23.68%
- % SEB reduction [2, 12]: 75.00%
- antivesicant activity (relative ear weight reduction) ([1]; 10 minutes post-exposure): about 36%
- antivesicant activity (relative ear weight reduction) ([1]; 15 minutes pre-exposure): about 42%
- protective activity ([1]; 60 minutes after HD exposure): significant protective activity
- protective efficacy (relative ear weight reduction) [1]: about 25%
- % REW reduction [1, 4]: 0.97%
- % REW reduction [1, 5]: 19.81%
- % REW reduction [1, 6]: 10.95%
- % REW reduction [1, 7]: 21.62%
- % REW reduction [1, 13]: 27.61% and 35.74% and 19.47%
- % REW reduction [1, 8]: 25.19%
- % REW reduction [1, 14]: 22.17%
- % REW reduction [1, 9]: 19.98%
- % REW reduction [1, 10]: 47.80%
- % REW reduction [1, 11]: 10.39%
- % REW reduction [1, 12]: 40.13%

SMILES: [O-][n+]1cc(Cl)ccc1S
- % REW reduction [1, 3]: 5.32%

SMILES: [O-][n+]1cccc(Cl)c1S
- % REW reduction [1, 3]: 18.31%
